Source: PubChem BioAssay AID455 (Sanford-Burnham Center for Chemical Genomics, 2006)
The list shows a part of the results, in another mix than the full data. Active and inactive are the calls of the source.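 Rule for the calls: active = a compound raising TNF-alpha-driven VCAM-1 surface staining, with its hit status upheld on visual or statistical review; inactive = the rest, including hits rejected on review.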

Assay: boosters of cytokine-driven VCAM-1 levels – cell-based, plate reader, pooled HUVEC, TNFa stimulus (AID 455)
Settings: HUVEC TNFa-induced VCAM-1 immunofluorescence

Structure (SMILES)	outcome
Fc1ccccc1NC1CCN(Cc2ccccc2)CC1	inactive
